# AlphaSeq binding of Ab-14 heavy chain variants to a spike HR2 peptide

Antigen: PDVDLGDISGINAS, a 14-residue peptide of the SARS-CoV-2 spike HR2 region.

Parent scFv Ab-14: VH joined to VL by a 15-residue (Gly4Ser)3 linker. Changes lie in the heavy chain CDRs alone.
VH: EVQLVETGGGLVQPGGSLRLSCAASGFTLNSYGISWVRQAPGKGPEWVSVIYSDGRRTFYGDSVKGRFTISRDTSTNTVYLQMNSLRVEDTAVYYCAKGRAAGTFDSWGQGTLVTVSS
VL: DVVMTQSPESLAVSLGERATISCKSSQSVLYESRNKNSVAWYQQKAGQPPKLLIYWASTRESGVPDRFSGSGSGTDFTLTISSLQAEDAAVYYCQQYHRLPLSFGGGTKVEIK

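The parent was found by panning a naive human phage display library on the peptide. Designed CDR sequences, proposed from the first random library and measured here. Their group label is 14H_GP_HC (GP: Gaussian process model; HC: hill climbing; a sequence that several methods proposed may carry one label only). In AlphaSeq, yeast of one mating type display the scFv and yeast of the other type display the target. Pairs that bind mate more often; barcode pairs of the diploids are counted by sequencing. The ratio of observed to expected reads was calibrated, replicate by replicate, on BCL2-family standards whose Kd was known from biolayer interferometry. The assay was run in six technical replicates.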

Substitutions are numbered in sequence along the VH above, starting at 1 (not Kabat).
Affinities are written as log10 Kd with Kd in nM; a lower number is a better binder.
A mean of the replicates is given; it leaves out those without a signal.
An entry "nd" has no value in the source: the pair was not observed among the diploids in that replicate. This suggests poor binding but is not conclusive.

| changes | log10 Kd, replicates | log10 Kd (nM), mean | empty controls |
|---|---|---|---|
| G61S/R100T/A102V/S107T | nd nd nd nd nd nd | nd | 0/18 |
| S31E/G61S/R100P/S107R | nd nd nd nd nd nd | nd | 0/18 |
| G61E/R100Q/A101T | 1.54 1.10 0.73 0.88 1.03 1.21 | 1.08 | 0/18 |
| S31E/G61S/S63D/R100E/D106K | 1.61 nd nd -0.38 0.96 0.03 | 0.55 | 0/18 |
| S31E/T58A/G61T/A101S | nd nd nd 3.19 nd nd | 3.19 | 0/18 |
| S31E/S63D/G103V/S107K | nd nd nd nd nd nd | nd | 0/18 |
| S31D/F59Y/D106W | nd nd nd nd nd nd | nd | 0/18 |
| T28P/S31H/S53A/R100E | -0.71 -0.57 -0.33 -0.62 -0.50 -0.41 | -0.52 | 1/18 (1.21) |
| G61S/R100V/G103D | nd nd nd nd nd nd | nd | 0/18 |
| S31E/D106F/S107T | nd nd nd nd nd nd | nd | 0/18 |
| F27E/S31D/F59Q/G61I | nd nd nd nd nd nd | nd | 0/18 |
| T28W/S31E/G61K | nd nd nd nd nd nd | nd | 0/18 |
| N30D/A101V/S107R | 1.36 0.93 1.50 1.52 1.43 1.17 | 1.32 | 0/18 |
| S31E/R56W/G61S | 0.50 0.33 0.72 0.57 0.68 0.74 | 0.59 | 1/18 (2.69) |
| S31D/R56K/G61I/R100K/D106W | nd nd nd nd nd 1.33 | 1.33 | 0/18 |
| S31Q/R56W/G61I/D106T | nd nd nd nd nd nd | nd | 0/18 |
| T28V/S31Q/S53A | 1.54 1.64 0.86 0.04 -0.17 0.26 | 0.70 | 0/18 |
| S31E/A101M/S107D | 1.60 1.93 0.89 1.16 1.38 0.88 | 1.31 | 0/18 |
| T28D/G61I/D106V/S107M | nd nd nd nd nd nd | nd | 0/18 |
| G61I/R100Q/A101L/S107D | nd nd nd nd nd nd | nd | 0/18 |
| T28S/S31E/G61C/G103V/S107L | nd nd nd nd 2.12 nd | 2.12 | 0/18 |
| T28S/S53A/D106K | 0.72 0.80 0.20 0.45 0.52 0.45 | 0.52 | 0/18 |
| R57K/G61D/R100Q/A101E | nd nd 0.77 nd 1.52 2.29 | 1.53 | 1/18 (2.34) |
| T28G/S53A/R100T | 0.16 -0.31 -0.20 -0.53 -0.35 -0.11 | -0.22 | 0/18 |
| T28I/G61D/R100Q/A101T | 2.60 2.19 1.82 0.58 nd 1.63 | 1.76 | 0/18 |
| S31E/F59M/G61S/A101C | nd nd nd nd 2.04 nd | 2.04 | 0/18 |
| S31E/S53A/D106T | 0.95 0.88 1.39 0.81 0.70 0.74 | 0.91 | 1/18 (3.84) |
| T28W/S31E/S53A/R100T | 0.18 0.15 0.23 -0.06 0.30 0.22 | 0.17 | 1/18 (2.01) |
| T28R/S31D/R100T | 0.05 -0.20 0.10 -0.19 -0.80 0.38 | -0.11 | 0/18 |
| G26L/S31E/G61E/A101T | 1.86 nd 2.17 1.49 1.54 2.16 | 1.85 | 0/18 |
| G26Q/N30E/S53A | 0.99 0.53 nd 1.49 nd 0.80 | 0.95 | 0/18 |
| G26H/S31E/G103V/S107T | nd nd nd nd nd nd | nd | 1/18 (2.13) |
| T28D/A101I/D106E | 0.37 0.48 0.49 0.20 0.51 0.53 | 0.43 | 0/18 |
| F27M/S53A/G61S | 0.35 0.06 0.13 -0.29 -0.16 0.11 | 0.03 | 0/18 |
| T28W/S31D/G61I/S63H/R100K | nd nd nd nd nd nd | nd | 0/18 |
| G61I/A101I/S107T | nd nd nd 0.23 nd nd | 0.23 | 0/18 |
| S31E/R56M/G61S/D106T | nd nd nd nd nd nd | nd | 0/18 |
| T28Q/S31D/A101C/D106I | nd nd nd nd nd nd | nd | 0/18 |
| T28K/G61M/R100Q/A101L | 1.56 1.94 2.06 1.30 0.83 0.95 | 1.44 | 0/18 |
| N30E/G61S/R100Q/A101G | nd nd nd 2.65 3.89 nd | 3.27 | 0/18 |
| T28D/G61I/T104H | nd nd nd 2.48 nd nd | 2.48 | 1/18 (1.84) |
| N30E/G61V/R100Q/A101G | nd 0.88 0.82 0.28 -0.02 1.50 | 0.69 | 0/18 |

Top 3 of the variants detected in all replicates, tightest first:

| changes | log10 Kd, replicates | log10 Kd (nM), mean | empty controls |
|---|---|---|---|
| T28P/S31H/S53A/R100E | -0.71 -0.57 -0.33 -0.62 -0.50 -0.41 | -0.52 | 1/18 (1.21) |
| T28G/S53A/R100T | 0.16 -0.31 -0.20 -0.53 -0.35 -0.11 | -0.22 | 0/18 |
| T28R/S31D/R100T | 0.05 -0.20 0.10 -0.19 -0.80 0.38 | -0.11 | 0/18 |

Empty control strains, which show no peptide, gave a signal in 1% of pairings with all heavy chain designs; the median was 2.08 and 95% of these signals were weaker than 0.84. No background was subtracted. The control count says in how many pairings with the empty strains this scFv gave a signal, with their mean in brackets.
The range of this assay differs from that of the first round, and the authors advise against merging the two.
In the paper, a design with two or fewer of six values counts as a poor binder.

Data: MIT Lincoln Laboratory AlphaSeq set, Li et al. 2023, doi:10.1038/s41467-023-39022-2, as distributed in FLAb.